These results are taken from ChEMBL document CHEMBL4049450, “Discovery of 5-Azaindazole (GNE-955) as a Potent Pan-Pim Inhibitor with Optimized Bioavailability” (J Med Chem, 2017).

Amino acid sequences for entries named in this document (tags omitted).
UniProt P11309, whole entry: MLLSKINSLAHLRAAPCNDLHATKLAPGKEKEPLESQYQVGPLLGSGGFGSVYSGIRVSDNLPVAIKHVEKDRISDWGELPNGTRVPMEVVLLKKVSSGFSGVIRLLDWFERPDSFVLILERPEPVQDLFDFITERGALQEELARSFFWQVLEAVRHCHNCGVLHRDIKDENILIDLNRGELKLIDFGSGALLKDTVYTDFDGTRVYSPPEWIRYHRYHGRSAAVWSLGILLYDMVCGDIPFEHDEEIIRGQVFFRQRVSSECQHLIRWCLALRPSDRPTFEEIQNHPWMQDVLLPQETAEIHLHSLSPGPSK

Each structure is given as a SMILES string.

The target in test [1] is Serine/threonine-protein kinase pim-3 (Homo sapiens, UniProt Q86V86). The test is described as follows: Inhibition of PIM3 (unknown origin) using 5FAM-ARKRRRHPSGPPTA as substrate after 90 mins in presence of ATP by caliper microfluidic mobility shift assay.
In test [2] the target is Serine/threonine-protein kinase pim-1 (Homo sapiens, UniProt P11309). The test is described as follows: Inhibition of PIM1 (unknown origin) using 5FAM-ARKRRRHPSGPPTA as substrate after 90 mins in presence of ATP by caliper microfluidic mobility shift assay.

`Cc1cncc(-c2cc3c(cn2)cnn3-c2cccc([C@H]3CNCCC3(F)F)n2)n1`: in test [1], the Ki was 0.02 nM. Consider `CCn1cc(-c2cc3c(-c4cccc(N5CCOCC5)n4)n[nH]c3cn2)cn1`, for which, in test [2], the Ki was found to be 0.6 nM.

As a reminder, the Ki is a dissociation constant, usually derived from enzyme kinetics or from competition with a known ligand.
